Consider 24 molecules from PubChem BioAssay (Tox21).

Amino acid sequences for entries named in this document (tags omitted). A change or cut given only in a name is not applied to a line headed by its entry.
UniProt P22303: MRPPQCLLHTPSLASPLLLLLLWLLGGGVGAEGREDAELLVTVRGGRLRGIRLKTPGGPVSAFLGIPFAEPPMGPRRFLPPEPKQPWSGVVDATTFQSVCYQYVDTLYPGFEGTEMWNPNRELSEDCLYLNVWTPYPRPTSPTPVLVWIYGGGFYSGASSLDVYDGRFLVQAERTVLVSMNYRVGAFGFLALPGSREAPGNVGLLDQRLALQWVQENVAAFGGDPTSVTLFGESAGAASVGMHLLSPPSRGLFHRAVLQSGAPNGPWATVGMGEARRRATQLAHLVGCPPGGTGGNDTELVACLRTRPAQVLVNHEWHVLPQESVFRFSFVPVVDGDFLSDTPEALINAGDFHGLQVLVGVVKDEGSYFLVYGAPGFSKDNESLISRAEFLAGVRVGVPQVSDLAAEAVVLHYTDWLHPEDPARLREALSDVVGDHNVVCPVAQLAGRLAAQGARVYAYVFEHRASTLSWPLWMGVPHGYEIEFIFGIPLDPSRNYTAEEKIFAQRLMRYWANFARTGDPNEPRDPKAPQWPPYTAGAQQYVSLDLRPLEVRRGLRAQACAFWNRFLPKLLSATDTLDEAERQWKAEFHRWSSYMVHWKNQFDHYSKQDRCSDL

The structures appear in SMILES notation. The entries are a selection whose mix differs from that of the whole data set. Calls of active or inactive are those of the source. The call rests on the fitted dose curve.
On the % scale 0 is the no-effect control and ±100 the full control effect; potency means the concentration at half of the fitted maximal effect.

This test addresses Acetylcholinesterase (Homo sapiens) (UniProt P22303). Nature of the test: Acetylcholinesterase (AChE) small molecule antagonists: enzyme-based qHTS assay with human liver microsomes (AID 1347399). Further: nearly all actives have a fitted effect of over 60% in size. The settings on record: Potency: qHTS inhibition; series mostly up to 115 µM; activity change, negative = inhibition: at the top concentration. The text has this:
National Center for Advancing Translational Sciences [NCATS]
Division of Preclinical Innovation [DPI]
U.S. Environmental Protection Agency [EPA]
National Institutes of Environmental Health Sciences [NIEHS]
National Toxicology Program [NTP]
U.S. Food and Drug Administration [FDA]
Acetylcholinesterase (AChE) is the primary cholinesterase in the body that hydrolyzes a key neurotransmitter, acetylcholine. Inhibition of AChE activity can lead to neurotoxicity. The known inhibitors include organophosphorous pesticides (OP), chemical warfare agents, drugs, and various phytochemicals. Some compounds like OP compounds may need metabolic activation to be active AChE inhibitors. The cytochrome P450 (CYP) superfamily in the human microsomes is responsible for the metabolism of various endogenous and exogenous compounds.
An enzyme-based assay with the recombinant human AChE, human liver microsomes and Amplite Colormetric acetylcholinesterase assay kit (AAT Bioquest, Sunnyvale, CA) was used to evaluate compounds in the Tox21 10K library that need metabolic activation for AChE inhibition. The assay uses 5, 5-dithiobis-(2-nitrobenzoic acid) (DTNB) to quantify the thiocholine produced from the hydrolysis of acetylthiocholine by AChE.
Tox21 Assay Protocol Summary:
For the enzyme-based AChE assay with microsomes addition, a mixture of human AChE (50 mU/mL) and human liver microsomes (0.25 mg/mL, final concentration) in 3 uL/well was dispensed into black, clear-bottom 1536-well plates using a Multidrop Combi dispenser (Thermo Scientific, MA). Then, 23 nL of compound or DMSO (vehicle control) was transferred into the assay plates by a Pintool Station (Wako Automation, CA). Following compound addition, 1 uL of NADPH (0.25 mg/mL, final concentration) was transferred to the assay plate by a Flying Reagent Dispenser (Beckman Coulter, CA). The plates were incubated for 30 min at 37 C and 5% CO2, followed by the addition of 4 uL of colorimetric detection cocktail solution (DTNB, acetylthiocholine) into each well using a Flying Reagent Dispenser (Beckman Coulter, CA) and then 10 min incubation at room temperature.
On the technique in general: qHTS replaces the single test concentration by a dilution series.
In the case of `Cc1cc([N+](=O)[O-])cc([N+](=O)[O-])c1O`, the Potency result was “inactive”.
As to `O=[N+]([O-])c1ccc([N+](=O)[O-])cc1`, the “activity change, negative = inhibition” value is inactive: 2.35%.
As for `CCOP(=S)(CC)Sc1ccccc1` (centres undefined), the Potency is active: 2.24 µM.
On to `O=[p+]1oc2ccccc2c2ccccc21` (centres undefined), for which the “activity change, negative = inhibition” value is inactive: -3.07%.
Still for that read-out and setting: under `CN(C(=O)Cc1cccc2occc12)[C@H]1CC[C@@]2(CCCO2)C[C@@H]1N1CCCC1` stands inactive: 0.566%.
Still for that read-out and setting: with `O=[P+](Oc1ccccc1)Oc1ccccc1` the figure was inactive: 0.495%.
On the same count and under the same terms, under `COC(=O)Cl` stands inactive: -0.0876%; under `O=C(Cl)Oc1ccccc1`, inactive: 0.703%; under `CCCCCCCCCCCCCC[P+](CCCCCC)(CCCCCC)CCCCCC`, inactive: -0.511%.
On to `CCCCO[P+](=O)OCCCC`, for which the Potency result was “inactive”.
`CN(C(=O)Cc1ccccc1)[C@H]1CC[C@@]2(CCCO2)C[C@@H]1N1CCCC1`: the “activity change, negative = inhibition” value was inactive: -0.635% [at 53 µM].
The same measure, in the same setting: with `CCCCOP(OCCCC)OCCCC` the figure was inactive: 0.486%; with `O=P(Cl)(Cl)c1ccccc1`, inactive: 0%.
With `ClP(Cl)c1ccccc1`, the “activity change, negative = inhibition” value was inactive: -2.51%.
Same read-out and setting: with `CCNC(C)Cc1ccc2c(c1)OCO2` (centres undefined) the figure was inactive: -0.147%.
Still for that read-out and setting: under `COP(=S)(Cl)OC` stands inactive: -0.486%.
In the case of `CCOC(=O)Cl`, the “activity change, negative = inhibition” value was inactive: -1.18%.
On the same count and under the same terms, under `Cc1cc([N+](=O)[O-])c(O)c([N+](=O)[O-])c1` stands inactive: 17.3%; under `CCC(C)(OOC(C)(C)C)OOC(C)(C)C`, inactive: 0.172% [at 23.6 µM].
On the same count and under the same terms, under `CC(C)CCCCCCCOP(OCCCCCCCC(C)C)Oc1ccccc1` stands inactive: 0%.
The same measure, in the same setting: with `O=[As]c1ccccc1` (centres undefined) the figure was inactive: 0.993%; with `O=P(Cl)(Oc1ccccc1)Oc1ccccc1`, inactive: 0.611%.
Turning to `CCCCC(CC)CO[P+](=O)OCC(CC)CCCC` (centres undefined), the “activity change, negative = inhibition” value was inactive: 0.0764%.
In the case of `CN(C(=O)Cc1ccc(Cl)c(Cl)c1)[C@H]1CC[C@@]2(CCCO2)C[C@@H]1N1CCCC1`, the “activity change, negative = inhibition” value is inactive: 0.895% [at 53 µM].
